Experimental data from patent US20090088380A1, “GHRH ANALOGS AND THERAPEUTIC USES THEREOF” (priority 2007, published 2009).

T1: human GHRH receptor (human, UniProt Q02643)
T1 sequence: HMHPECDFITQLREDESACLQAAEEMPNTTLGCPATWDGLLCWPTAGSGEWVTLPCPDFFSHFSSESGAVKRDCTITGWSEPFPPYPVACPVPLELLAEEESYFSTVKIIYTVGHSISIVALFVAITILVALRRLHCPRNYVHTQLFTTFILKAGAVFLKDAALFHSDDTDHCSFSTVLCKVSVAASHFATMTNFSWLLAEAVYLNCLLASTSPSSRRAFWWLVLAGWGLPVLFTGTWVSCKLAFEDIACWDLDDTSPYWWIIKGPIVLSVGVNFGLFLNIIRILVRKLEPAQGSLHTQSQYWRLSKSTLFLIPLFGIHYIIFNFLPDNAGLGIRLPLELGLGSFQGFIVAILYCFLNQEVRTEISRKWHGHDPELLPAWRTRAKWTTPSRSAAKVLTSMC


Columns and labels:
[1] = In vitro proteolysis assay in human plasma; conditions: IT 0 min
human GHRH receptor = target: T1, human GHRH receptor; assay: competition with [125I-Tyr10]hGHRH(1-44)NH2, BHK cell membrane preparations expressing the human GHRH receptor
Description: ¹²⁵I-GHRH binding assay was performed using [¹²⁵I-Tyr¹⁰]hGHRH(1-44)NH₂ as a radioligand. Competition experiments were done in BHK (baby hamster kidney) 570 cell membrane preparations (25 μg of protein/assay tube) with increasing concentrations (0-1000 nM) of human(h)GHRH(1-29)NH₂, hGHRH(1-44)NH₂ or GHRH analogs, in a total volume of 300 μl of 50 mM Tris-acetate buffer (pH 7.4), containing 5 mM of MgCl₂, 5 mM EDTA and 0.42% BSA. Non specific binding was determined in presence of 1 μM hGHRH(1-29)NH₂. Incubation was carried out at equilibrium (23° C., 60 min) and stopped by centrifugation (12,000 g, 5 min, at 4° C.). The radioactivity content in pellets was determined by gamma counting. The affinity of hGHRH(1-29) NH₂ was tested in each experiment to assess the validity of the assay and determine the relative affinity of the analogs. The ligand computerized program was used to analyze competition curves of GHRH analogs reported in Tables 2 and 3 and to determine their IC50.

Row | IC50 (human GHRH receptor) | Molecule | Mean residual amount (%) [1]
1 |  | hGHRH(1-44)NH2 [reference compound] | 100%
2 | 5.2 pM | YADAIFTNSYRKVLGQLSARKLLQDIMSRQQGESNQERGARARL (ligand, C-terminal amide (NH2)) [hGHRH(1-44)NH2] | 
